This passage reports Kd results from patent US20050203086A1, “Methods of treatment using an EP2 selective receptor agonist” (Pfizer Inc., priority 2004, published 2005).

Amino acid sequences for entries named in this document (tags omitted). A change or cut given only in a name is not applied to a line headed by its entry.
UniProt P43116: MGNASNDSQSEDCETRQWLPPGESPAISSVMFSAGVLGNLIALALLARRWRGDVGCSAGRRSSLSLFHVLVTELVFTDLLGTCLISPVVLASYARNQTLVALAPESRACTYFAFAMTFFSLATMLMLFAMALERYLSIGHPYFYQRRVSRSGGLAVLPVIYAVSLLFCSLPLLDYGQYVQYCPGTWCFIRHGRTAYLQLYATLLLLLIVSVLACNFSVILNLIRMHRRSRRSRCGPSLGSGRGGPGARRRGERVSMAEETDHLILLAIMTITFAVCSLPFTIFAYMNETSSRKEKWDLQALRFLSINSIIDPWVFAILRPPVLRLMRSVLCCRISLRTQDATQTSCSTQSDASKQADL

In this assay the target is T1, human EP2 receptor (Homo sapiens, UniProt P43116).
T1 construct: cDNAs representing the complete open reading frames of the human EP2 and EP4 receptors; expressed in transfected cells
Put plainly: Scatchard analysis of specific [3H]PGE2 binding in the 293-S line overexpressing recombinant human EP2. To be noted: read-out: Kd for PGE2 (EP2); 293-S/EP2 line selected for compound screening. The source says:
cDNAs representing the complete open reading frames of the human EP2 and EP4 receptors are generated by reverse transcriptase polymerase chain reaction using oligonucleotide primers based on published sequences (1, 2) and RNA from primary human kidney cells (EP2) or primary human lung cells (EP4) as templates. cDNAs are cloned into the multiple cloning site of pcDNA3 (Invitrogen Corporation, 3985B Sorrento Valley Blvd., San Diego, Calif. 92121) and used to transfect 293-S human embryonic kidney cells via calcium phosphate co-precipitation. […] Constituitive expression of both receptors in parental 293-S cells is negligible. Cells are maintained in RPMI supplemented with fetal bovine serum (10% final) and G418 (700 ug/ml final).

In the case of `CCCCC[C@H](O)/C=C/[C@H]1[C@H](O)CC(=O)[C@@H]1C/C=C\CCCC(=O)O` [PGE2], the Kd (commonly the free concentration of one partner at which half of the binding sites on the other are occupied at equilibrium, for simple one-to-one binding) is 12 nM.
